From PubChem BioAssay AID461 (SRMLSC, 2006) come the findings set out here.

Only a part is listed here, and it is no random draw. The source made the active and inactive calls.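 Rule for the calls: active = Her2 level under about 52% in both replicate screens, with viability over 70% of control (limit read from the data); inconclusive = Her2 under the limit in one screen only, or viability under 70%; inactive = Her2 level above the set limit.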

In this assay the target is Receptor tyrosine-protein kinase erbB-2 (Homo sapiens) (UniProt P04626). In words: reducers of endogenous Her2 protein level, primary screen, SKBR3 breast tumor cells, AlphaScreen, ATP viability (AID 461).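 Note: lower value means less Her2 protein in the cells.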 The following applies: 18-24 h, at 10 µM, hits give low values. For orientation: Bead proximity is the source of the signal in Alpha formats.
For the molecule `O=P(Nc1nccs1)(c1ccccc1)c1ccccc1`, the Her2 level is inactive: 92%.

Consider `CCOP1(=S)c2c(C)nn(CCC#N)c2N=C(c2ccccc2F)N1C` (stereo not drawn), for which the Her2 level was inactive: 128%.

Regarding `O=C(COc1ccccc1)OC1CN2CCC1CC2` (stereo not drawn), the Her2 level is inactive: 90%.
